Structures can show the parent of a compound that is named as a salt.

The test system of experiment [1] is xylene-induced ear swelling in mice. Nature of the experiment: Xylene-induced ear swelling in mice. It is filed as in vivo, KM mice. The settings on record: oral once daily 5 days, composition 4.83 g crude drugs/kg, aspirin 0.20 g/kg, X ± SD, n = 10. As for the experimental part:
Male KM rats, weighing 180-220 g were fed adaptively for 4 days, with the environmental temperature maintained at 20-25° C. […] Mice in each group were orally gavaged once daily for 5 consecutive days. One hour after the final administration, 0.03 ml of xylene was applied to both sides of the right ear of each mouse, while the left ear served as a control. One hour later, the mice were euthanized by cervical dislocation, and 8 mm ear punches were taken from the same location on both ears of each mouse. The ear punches were weighed precisely, and the difference in weight between the right and left ears was calculated as the degree of swelling.

For experiment [2], the system named is ammonia-induced cough in mice. Nature of the experiment: Ammonia solution-induced cough in mice. The following applies: oral once daily 5 days, composition 4.83 g crude drug/kg, promethazine hydrochloride 1.79 mg/kg, X ± SD, n = 10.
The mark [3] stands for this setting: verification study, batches P-V.

In turn, `CC(=O)Oc1ccccc1C(=O)O` [Aspirin, aspirin] returned a Degree of swelling in experiment [1] (right minus left ear punch weight, 1 h after xylene) of 0.0076 ± 0.0042 g. For the same molecule, in experiment [1] (setting [3]), the “Degree of ear swelling” value was 0.0071 ± 0.0038 g.
`CC(CN1c2ccccc2Sc2ccccc21)N(C)C` (stereo not shown) [Promethazine hydrochloride, promethazine hydrochloride]: the Cough latency period in experiment [2] was determined as 50.37 ± 8.88 s; in experiment [2] (setting [3]) it was 49.82 ± 8.51 s.

For the origin of these results see US12409192B2, “Traditional Chinese medicine composition and use thereof” (JIANGSU KANION PHARMACEUTICAL CO., LTD, priority 2021, dated 2025).
